## Yeast mating assay 1: variants of the scFv Ab-14

From the AlphaSeq antibody data of Engelhart et al. 2022 (doi:10.1038/s41597-022-01779-4), copy in the FLAb collection.

The target is the same throughout: PDVDLGDISGINAS, from the HR2 region of SARS-CoV-2 spike.

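AAYL50 was designed without a model: most single CDR substitutions and a random sample of double and triple ones. AlphaSeq pools MATa yeast showing the antibodies with MATalpha yeast showing the peptide. The frequency of each diploid, read from paired DNA barcodes, reflects how well the two displayed proteins bind. A regression on co-assayed BCL2-family reference pairs converts the normalised counts of each replicate to an apparent Kd. Each pool was mated in three replicate cultures.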

Ab-14 is the parent antibody, in scFv form: VH, then a (GGGGS)3 linker, then VL. The heavy chain is unchanged in all variants.
VH: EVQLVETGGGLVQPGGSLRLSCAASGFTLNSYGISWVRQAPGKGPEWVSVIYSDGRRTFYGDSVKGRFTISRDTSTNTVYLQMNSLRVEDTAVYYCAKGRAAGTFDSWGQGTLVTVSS
VL: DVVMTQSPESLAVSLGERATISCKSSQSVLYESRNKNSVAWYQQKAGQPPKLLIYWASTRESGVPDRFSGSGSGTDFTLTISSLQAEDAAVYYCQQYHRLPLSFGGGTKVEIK

Changes read parent residue, position, new residue, counted from the first residue of the VL shown. Every variant below is changed at S28 of the VL (sequential numbering). Numbers give log10(Kd / nM), so 0 is 1 nM and 3 is 1 µM. Smaller is tighter. The mean shown is taken over the replicates in which the pair was detected. Where no diploid with the target was found in any replicate, the entry reads "nd": below detection, most likely a poor binder, though not proof of it. For reference, the parent read 0.65 as the reference entry and 1.68 as a member of this library.

For S28W+W56Y+Y97K, the assay gave 2.31 (3 of 3 replicates).
For S28E+E61L+L100F, the assay gave 1.63 (3 of 3 replicates).
For S28T+T59V+Q95M, the assay gave 3.18 (2 of 3 replicates).
For S28K+A57L, the assay gave 4.30 (2 of 3 replicates).
For S25L+S28Y+E61L, the assay gave 0.73 (3 of 3 replicates).
For S28G+E32K+S103W, the assay gave 4.25 (2 of 3 replicates).
For S28D+Y31A+T59S, the assay gave 1.10 (3 of 3 replicates).
For S28I+T59Y+Q96T, the assay gave 3.66 (3 of 3 replicates).
For S26R+S28R+Q95L, the assay gave 2.95 (1 of 3 replicates).
For S28T+N37K+W56A, the assay gave 3.71 (1 of 3 replicates).
For S28A+V29E+E32Y, the assay gave 1.57 (3 of 3 replicates).
For S28W+Y97R, the assay gave 4.08 (3 of 3 replicates).
For S28E+E32A, the assay gave 0.85 (3 of 3 replicates).
For S28W+T59L+E61V, the assay gave 1.65 (3 of 3 replicates).
For K24I+S28Q+L30V, the assay gave 2.63 (3 of 3 replicates).
For S28W+S58K, the assay gave 3.12 (3 of 3 replicates).
For S28A+V29I+W56F, the assay gave 0.75 (3 of 3 replicates).
For S28F+R60N+Q95A, the assay gave nd (0 of 3 replicates).
For S26N+S28K, the assay gave 2.36 (3 of 3 replicates).
For S28G+L30T+S58C, the assay gave 3.22 (1 of 3 replicates).
For S28P, the assay gave 0.88 (3 of 3 replicates).
For S28M+Q96C+L100T, the assay gave 1.14 (3 of 3 replicates).
For S28F+L30S+L102Y, the assay gave nd (0 of 3 replicates).
For S28E+K36E+T59R, the assay gave 0.66 (3 of 3 replicates).
For S26W+S28P+S38F, the assay gave nd (0 of 3 replicates).
For S28L+T59D+S62F, the assay gave 3.56 (2 of 3 replicates).
For S28Y+S33Y+A57C, the assay gave 3.34 (1 of 3 replicates).
For S28V+W56C+Y97C, the assay gave 2.12 (3 of 3 replicates).
For S28V+T59R+R99W, the assay gave nd (0 of 3 replicates).
For S28T+A57G+P101R, the assay gave nd (0 of 3 replicates).
For S28I+S33E+S58M, the assay gave 3.69 (1 of 3 replicates).
For S28K+L30G+H98S, the assay gave nd (0 of 3 replicates).
For S28L+T59W, the assay gave 2.86 (3 of 3 replicates).
For S28D+T59E+R60N, the assay gave 2.24 (3 of 3 replicates).
For S28H+A40Y+S58N, the assay gave nd (0 of 3 replicates).
For S28W+E32Y+W56C, the assay gave 3.66 (3 of 3 replicates).
For S28P+A57I, the assay gave 3.25 (3 of 3 replicates).
For S28A+V39W+H98L, the assay gave 3.46 (1 of 3 replicates).
For S28I+V29K+K36T, the assay gave 0.94 (3 of 3 replicates).
For Q27W+S28M+E32C, the assay gave nd (0 of 3 replicates).

A selection of 6 entries from above:

For S28K+L30G+H98S, the assay gave nd (0 of 3 replicates).
For S28V+W56C+Y97C, the assay gave 2.12 (3 of 3 replicates).
For S25L+S28Y+E61L, the assay gave 0.73 (3 of 3 replicates).
For Q27W+S28M+E32C, the assay gave nd (0 of 3 replicates).
For S28V+T59R+R99W, the assay gave nd (0 of 3 replicates).
For S28T+T59V+Q95M, the assay gave 3.18 (2 of 3 replicates).

As a blank, each scFv also met three strains without target: over library AAYL50, 18% of these pairings were detected, typically at 4.19 and seldom below 2.99.